Key:
[1] = target: T1, activated protein C (APC) (Homo sapiens, UniProt P04070); assay: APC activity assay (Accucolor assay, modified for aqueous environment); assay type: biochemical; details: 40 μM chelator with APC 2 mg/L, no added copper, 30 min 37° C., mean±SD
T1 construct: purchased Sigma (St. Louis, Mo.) P2200
Method: Materials. The human albumin N-terminus analogue, d-DAHK, was synthesized by Bowman Research, Ltd (Newport, Wales, U.K.). The assay for APC anticoagulant activity was the Accucolor™ calorimetric assay (Sigma Diagnostics, St. Louis, Mo.). APC (Sigma, product number P2200), HSA (Sigma, product number A1653), and all other chemicals were obtained from Sigma (St. Louis, Mo.). Copper content of APC was determined by graphite furnace atomic absorption (Galbraith Laboratories, Knoxville, Tenn.).
APC activity assay. The APC assay, originally designed for plasma samples (Francis et al., Am. J. Clin. Pathol. 87, 619-625 (1987)) was modified for use in a clean, aqueous environment. Solutions of CuCl2, HSA, and d-DAHK were prepared in 20 mM KH2PO4 buffer (pH 7.4). Experiments were performed in a 96-well plate. […] Concentrated acetic acid was added to each well to stop the reaction and the results were read at 410 nm on a microplate fluorescence reader (Model FL600, Bio-Tek Instruments, Inc., Winooski, Vt.). APC activity for copper alone, HSA alone, d-DAHK alone, and all combinations of HSA:CuCl2, and d-DAHK:CuCl2 were expressed as the mean percent change (±standard deviation) from baseline APC activity using buffer alone.

Sequences of proteins named here, by UniProt entry; tags and fusion partners are left off. Residues count along the entry.
UniProt P04070, 43-197 limits assumed: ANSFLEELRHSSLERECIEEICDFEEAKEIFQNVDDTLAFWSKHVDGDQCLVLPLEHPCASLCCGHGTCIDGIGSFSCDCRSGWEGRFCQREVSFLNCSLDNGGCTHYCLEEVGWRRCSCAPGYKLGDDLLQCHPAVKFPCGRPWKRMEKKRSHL
UniProt P04070, 212-461 limits assumed: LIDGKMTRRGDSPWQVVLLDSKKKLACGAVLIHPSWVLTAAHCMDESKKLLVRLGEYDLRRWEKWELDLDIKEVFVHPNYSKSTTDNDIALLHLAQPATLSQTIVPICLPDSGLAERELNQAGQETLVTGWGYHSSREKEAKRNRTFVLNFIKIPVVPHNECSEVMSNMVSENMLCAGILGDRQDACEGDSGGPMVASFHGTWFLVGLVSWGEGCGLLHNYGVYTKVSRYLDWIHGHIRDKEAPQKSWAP

[2] = compared to electrolyte solution alone; cited from earlier work

## HSA: human serum albumin (Sigma, product number A1653)
[1]
  increase over baseline APC activity, chelator alone: 202.1%±48.1
[2]
  effect on hemodynamic parameters and survival: improve hemodynamic parameters and survival
